Consider four compounds from patent publication US10508088B2, “Methods using HDAC11 inhibitors” (FORMA Therapeutics, Inc., priority 2016, dated 2019).

The chains behind the UniProt entries cited, without tags or fusion partners. Residues count along the entry.
UniProt Q13547, whole entry: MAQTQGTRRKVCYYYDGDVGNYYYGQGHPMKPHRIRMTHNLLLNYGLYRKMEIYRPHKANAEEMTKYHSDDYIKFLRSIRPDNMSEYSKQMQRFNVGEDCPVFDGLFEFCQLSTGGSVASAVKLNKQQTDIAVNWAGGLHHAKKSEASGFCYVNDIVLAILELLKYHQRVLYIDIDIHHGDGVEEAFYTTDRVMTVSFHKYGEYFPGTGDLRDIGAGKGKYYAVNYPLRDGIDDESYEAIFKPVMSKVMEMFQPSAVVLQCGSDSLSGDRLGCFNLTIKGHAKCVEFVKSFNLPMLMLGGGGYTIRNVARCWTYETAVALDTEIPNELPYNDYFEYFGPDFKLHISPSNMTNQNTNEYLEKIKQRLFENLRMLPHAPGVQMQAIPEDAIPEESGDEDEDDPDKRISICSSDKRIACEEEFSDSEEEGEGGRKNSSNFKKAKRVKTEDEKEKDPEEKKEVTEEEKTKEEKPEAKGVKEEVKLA
UniProt Q969S8, whole entry: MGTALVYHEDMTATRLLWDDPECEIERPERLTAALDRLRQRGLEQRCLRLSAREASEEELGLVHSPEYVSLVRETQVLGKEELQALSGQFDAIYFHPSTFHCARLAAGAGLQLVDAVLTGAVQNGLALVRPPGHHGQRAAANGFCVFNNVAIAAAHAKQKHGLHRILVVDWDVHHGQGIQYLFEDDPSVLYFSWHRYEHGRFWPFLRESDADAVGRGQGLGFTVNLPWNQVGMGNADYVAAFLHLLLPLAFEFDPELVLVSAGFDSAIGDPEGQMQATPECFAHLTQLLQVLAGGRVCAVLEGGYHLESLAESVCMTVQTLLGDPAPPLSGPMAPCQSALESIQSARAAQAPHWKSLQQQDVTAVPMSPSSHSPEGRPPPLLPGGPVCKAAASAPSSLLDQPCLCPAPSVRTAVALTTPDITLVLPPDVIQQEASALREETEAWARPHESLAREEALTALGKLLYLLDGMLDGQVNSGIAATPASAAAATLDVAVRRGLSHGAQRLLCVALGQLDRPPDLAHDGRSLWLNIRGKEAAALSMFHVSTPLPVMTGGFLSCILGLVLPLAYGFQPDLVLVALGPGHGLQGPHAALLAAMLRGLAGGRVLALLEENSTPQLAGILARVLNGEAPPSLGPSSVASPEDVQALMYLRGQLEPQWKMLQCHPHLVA
UniProt Q92769, whole entry: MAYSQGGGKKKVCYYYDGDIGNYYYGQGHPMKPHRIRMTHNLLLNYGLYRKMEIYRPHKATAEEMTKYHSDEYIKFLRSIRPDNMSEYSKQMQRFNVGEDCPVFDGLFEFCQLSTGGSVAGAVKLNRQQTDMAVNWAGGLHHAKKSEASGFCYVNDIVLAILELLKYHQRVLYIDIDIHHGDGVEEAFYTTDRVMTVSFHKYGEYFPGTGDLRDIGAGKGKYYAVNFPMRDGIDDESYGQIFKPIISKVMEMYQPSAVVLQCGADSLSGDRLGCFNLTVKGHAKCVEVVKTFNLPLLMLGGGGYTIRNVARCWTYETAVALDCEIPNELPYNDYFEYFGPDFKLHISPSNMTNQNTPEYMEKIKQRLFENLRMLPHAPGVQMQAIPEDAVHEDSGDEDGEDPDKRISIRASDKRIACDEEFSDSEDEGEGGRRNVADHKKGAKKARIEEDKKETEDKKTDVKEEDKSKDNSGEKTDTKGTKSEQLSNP
UniProt O15379, whole entry: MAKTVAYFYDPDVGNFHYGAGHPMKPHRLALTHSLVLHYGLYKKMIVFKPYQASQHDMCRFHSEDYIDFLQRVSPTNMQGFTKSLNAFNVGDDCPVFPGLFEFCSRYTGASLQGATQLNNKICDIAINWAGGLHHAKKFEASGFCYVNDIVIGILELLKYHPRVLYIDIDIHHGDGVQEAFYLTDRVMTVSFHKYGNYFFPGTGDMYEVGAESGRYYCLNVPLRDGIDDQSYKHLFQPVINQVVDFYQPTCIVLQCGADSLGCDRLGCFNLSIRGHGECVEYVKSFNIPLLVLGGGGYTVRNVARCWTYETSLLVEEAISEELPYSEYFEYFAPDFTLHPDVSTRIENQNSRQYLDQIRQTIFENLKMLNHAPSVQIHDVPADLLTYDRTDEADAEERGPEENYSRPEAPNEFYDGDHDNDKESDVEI
UniProt Q9UQL6, whole entry: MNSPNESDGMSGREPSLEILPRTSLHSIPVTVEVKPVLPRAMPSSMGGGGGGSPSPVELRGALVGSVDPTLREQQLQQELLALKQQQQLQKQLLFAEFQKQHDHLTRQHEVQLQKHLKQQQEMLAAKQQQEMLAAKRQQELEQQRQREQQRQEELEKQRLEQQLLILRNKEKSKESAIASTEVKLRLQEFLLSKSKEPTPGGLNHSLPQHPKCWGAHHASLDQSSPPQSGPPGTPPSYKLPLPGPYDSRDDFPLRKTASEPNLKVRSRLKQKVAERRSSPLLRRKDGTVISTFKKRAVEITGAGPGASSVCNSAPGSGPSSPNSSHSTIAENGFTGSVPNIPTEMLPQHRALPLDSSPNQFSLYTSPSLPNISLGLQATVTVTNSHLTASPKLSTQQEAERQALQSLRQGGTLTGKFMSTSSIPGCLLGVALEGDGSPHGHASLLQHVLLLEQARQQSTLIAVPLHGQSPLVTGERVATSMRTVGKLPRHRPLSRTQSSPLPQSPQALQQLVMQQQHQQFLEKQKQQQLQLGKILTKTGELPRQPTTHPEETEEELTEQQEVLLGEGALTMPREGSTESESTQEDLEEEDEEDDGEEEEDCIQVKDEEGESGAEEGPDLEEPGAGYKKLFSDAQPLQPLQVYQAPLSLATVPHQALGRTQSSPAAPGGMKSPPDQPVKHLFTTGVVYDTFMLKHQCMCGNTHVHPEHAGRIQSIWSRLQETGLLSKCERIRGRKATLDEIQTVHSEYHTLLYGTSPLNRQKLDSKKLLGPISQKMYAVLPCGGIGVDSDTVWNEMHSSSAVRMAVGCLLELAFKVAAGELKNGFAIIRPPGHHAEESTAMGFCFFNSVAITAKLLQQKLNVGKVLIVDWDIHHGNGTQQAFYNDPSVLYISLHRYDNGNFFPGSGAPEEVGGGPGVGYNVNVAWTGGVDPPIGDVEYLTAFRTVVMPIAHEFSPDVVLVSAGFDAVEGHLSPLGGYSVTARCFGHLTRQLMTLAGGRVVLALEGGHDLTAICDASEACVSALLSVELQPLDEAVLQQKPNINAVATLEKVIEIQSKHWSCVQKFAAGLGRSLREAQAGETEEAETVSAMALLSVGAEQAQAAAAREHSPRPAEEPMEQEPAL
UniProt Q9UBN7, whole entry: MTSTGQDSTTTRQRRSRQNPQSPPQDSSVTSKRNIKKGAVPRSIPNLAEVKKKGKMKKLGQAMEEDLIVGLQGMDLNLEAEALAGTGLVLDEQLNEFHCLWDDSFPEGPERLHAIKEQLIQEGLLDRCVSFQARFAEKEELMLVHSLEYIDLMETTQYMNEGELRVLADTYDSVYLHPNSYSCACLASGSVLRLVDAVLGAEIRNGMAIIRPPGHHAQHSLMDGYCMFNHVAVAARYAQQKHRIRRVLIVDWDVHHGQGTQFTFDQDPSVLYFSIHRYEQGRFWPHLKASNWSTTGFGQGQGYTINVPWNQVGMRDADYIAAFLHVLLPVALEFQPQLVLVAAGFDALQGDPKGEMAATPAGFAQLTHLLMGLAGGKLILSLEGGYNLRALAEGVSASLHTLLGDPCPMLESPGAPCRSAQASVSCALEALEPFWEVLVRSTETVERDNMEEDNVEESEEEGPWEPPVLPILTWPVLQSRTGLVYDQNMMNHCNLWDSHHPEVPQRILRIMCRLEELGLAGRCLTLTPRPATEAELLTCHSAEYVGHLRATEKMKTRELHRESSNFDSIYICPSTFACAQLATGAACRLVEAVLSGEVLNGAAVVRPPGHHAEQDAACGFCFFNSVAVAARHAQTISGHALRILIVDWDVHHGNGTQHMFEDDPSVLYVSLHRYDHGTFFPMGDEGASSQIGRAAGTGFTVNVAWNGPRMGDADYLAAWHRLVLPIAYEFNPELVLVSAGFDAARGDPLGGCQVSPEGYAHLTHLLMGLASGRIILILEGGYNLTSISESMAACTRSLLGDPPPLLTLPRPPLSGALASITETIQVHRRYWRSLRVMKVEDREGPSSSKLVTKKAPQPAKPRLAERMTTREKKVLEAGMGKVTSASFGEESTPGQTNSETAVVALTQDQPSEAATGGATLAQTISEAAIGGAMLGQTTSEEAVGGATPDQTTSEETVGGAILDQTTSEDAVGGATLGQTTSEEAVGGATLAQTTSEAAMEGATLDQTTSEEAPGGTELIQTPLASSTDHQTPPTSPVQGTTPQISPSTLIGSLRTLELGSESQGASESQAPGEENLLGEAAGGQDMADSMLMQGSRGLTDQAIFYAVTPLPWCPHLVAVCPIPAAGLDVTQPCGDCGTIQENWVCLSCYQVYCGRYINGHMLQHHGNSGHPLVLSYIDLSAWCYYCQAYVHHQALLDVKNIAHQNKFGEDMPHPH
UniProt Q9BY41, whole entry: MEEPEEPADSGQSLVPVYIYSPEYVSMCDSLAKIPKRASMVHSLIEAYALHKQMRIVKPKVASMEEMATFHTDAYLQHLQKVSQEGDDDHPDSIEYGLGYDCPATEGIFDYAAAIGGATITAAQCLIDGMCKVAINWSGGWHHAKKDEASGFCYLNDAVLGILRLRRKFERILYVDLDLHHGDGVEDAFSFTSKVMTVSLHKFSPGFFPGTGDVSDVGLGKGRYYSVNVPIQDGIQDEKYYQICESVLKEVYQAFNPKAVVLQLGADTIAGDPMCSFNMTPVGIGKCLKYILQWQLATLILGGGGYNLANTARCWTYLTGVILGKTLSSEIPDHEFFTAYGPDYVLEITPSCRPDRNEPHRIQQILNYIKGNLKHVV
UniProt Q9UKV0, whole entry: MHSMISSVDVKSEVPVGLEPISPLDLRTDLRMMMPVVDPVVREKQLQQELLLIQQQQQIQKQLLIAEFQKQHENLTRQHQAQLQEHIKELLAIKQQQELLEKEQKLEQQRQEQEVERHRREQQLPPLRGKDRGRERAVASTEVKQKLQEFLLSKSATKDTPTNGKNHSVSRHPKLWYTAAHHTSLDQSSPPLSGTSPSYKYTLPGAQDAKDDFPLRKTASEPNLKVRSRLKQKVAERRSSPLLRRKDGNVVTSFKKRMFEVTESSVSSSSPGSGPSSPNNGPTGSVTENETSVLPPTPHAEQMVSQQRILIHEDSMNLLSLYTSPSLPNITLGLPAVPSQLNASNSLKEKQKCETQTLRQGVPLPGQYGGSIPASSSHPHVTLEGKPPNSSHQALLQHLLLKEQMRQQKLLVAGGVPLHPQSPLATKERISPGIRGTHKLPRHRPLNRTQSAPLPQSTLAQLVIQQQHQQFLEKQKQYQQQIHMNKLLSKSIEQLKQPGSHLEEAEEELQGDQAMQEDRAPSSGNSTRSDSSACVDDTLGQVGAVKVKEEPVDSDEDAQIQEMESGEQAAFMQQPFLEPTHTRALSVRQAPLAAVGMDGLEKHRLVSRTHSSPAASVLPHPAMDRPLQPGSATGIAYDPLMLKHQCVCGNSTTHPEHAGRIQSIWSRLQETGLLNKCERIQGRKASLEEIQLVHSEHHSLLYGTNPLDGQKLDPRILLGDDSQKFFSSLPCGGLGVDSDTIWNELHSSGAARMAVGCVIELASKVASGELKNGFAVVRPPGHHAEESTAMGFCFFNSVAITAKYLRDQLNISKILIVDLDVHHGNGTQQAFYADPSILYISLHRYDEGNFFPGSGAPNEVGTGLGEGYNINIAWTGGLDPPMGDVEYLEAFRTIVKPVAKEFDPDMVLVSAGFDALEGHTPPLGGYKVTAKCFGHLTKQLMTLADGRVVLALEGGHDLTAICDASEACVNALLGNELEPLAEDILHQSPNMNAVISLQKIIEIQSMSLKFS
UniProt Q96DB2, whole entry: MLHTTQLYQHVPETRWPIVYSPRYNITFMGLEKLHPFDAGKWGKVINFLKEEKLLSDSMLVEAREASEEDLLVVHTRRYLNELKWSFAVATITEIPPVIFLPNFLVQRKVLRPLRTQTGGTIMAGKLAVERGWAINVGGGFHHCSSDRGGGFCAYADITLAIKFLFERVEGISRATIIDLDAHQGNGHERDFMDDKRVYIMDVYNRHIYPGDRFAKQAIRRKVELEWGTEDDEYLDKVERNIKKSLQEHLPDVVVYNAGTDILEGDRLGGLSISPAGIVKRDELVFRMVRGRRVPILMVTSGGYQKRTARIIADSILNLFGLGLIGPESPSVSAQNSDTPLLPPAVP
UniProt Q9Y618, 395-489 partner limits assumed: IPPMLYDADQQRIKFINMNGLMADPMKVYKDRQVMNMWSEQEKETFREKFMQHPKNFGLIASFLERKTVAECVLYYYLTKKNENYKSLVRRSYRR

Assay [1] relates to HEL 92.1.7 cells. Kind of assay: Cell proliferation assay (CCK8). The note with it: HEL 92.1.7, 48 h.
In the next assay the test system is SET-2 cells. Kind of assay: Cell proliferation assay (CCK8). Particulars: Ruxolitinib-resistant SET-2.
Assay [2] concerns HEL 92.1.7 cells. Kind of assay: Cell cycle assay by flow cytometry. Particulars: HEL 92.1.7, 12 hours of treatment at 10 μM. A general note: A flow cytometer gives signals particle by particle.
For assay [3], the system named is A549 side population stem-like cells (KRAS mutation). The assay is described as follows: Sphere formation assay with stem-like side population NSCLC cells. The note with it: A549 SP cells, 0.5-5.0 μM, Day 10.
The subject of assay [4] is H1650 side population stem-like cells (EGFR mutation). The description is as above. The note with it: H1650 SP cells, 0.5-5.0 μM, Day 10.
The subject of another assay is H1650 SP cells. The assay is described as follows: Tube formation assay with stem-like side population NSCLC cells. Particulars: H1650 SP cells on Matrigel.
The test system of assay [5] is Sox2, Gli1, Yap1 mRNA in A549 cells. The assay is described as follows: QRT-PCR assay for stem cell transcription factors. The note with it: A549, 72 hours.
Assay [6] has as its system Sox2, Gli1, Yap1 mRNA in H1650 cells. The assay is described as follows: QRT-PCR assay for stem cell transcription factors. The note with it: H1650, 72 hours.
Assay [7] concerns H1650 cells co-cultured with primary CAFs. The assay is described as follows: Co-culture assay with cancer cells and cancer associated fibroblasts. The note with it: 1:1 co-culture.
Assay [8] has as its system primary CAFs from human lung cancer. The assay is described as above. The note with it: 1:1 co-culture with H1650.
For a further assay, the system named is A549 cells. Kind of assay: Cell proliferation assay with combination treatment (MTT). Particulars: A549, combination with GDC-0449 (Vismodegib) or BMS-833923, 96 hours.
The subject of the next assay is NCI-H2170 cells. Described as above. Particulars: H2170, combination with GDC-0449 (Vismodegib) or BMS-833923, 96 hours.
Another assay has as its target HDAC1 (Homo sapiens (Human), UniProt Q13547). The assay is described as follows: HDAC inhibition assay, electrophoretic mobility shift (Nanosyn). The note with it: read-out: HDAC Biochemical IC50 HDAC1.
The target of the next assay is HDAC10 (Homo sapiens (Human), UniProt Q969S8). The description is as above. Particulars: read-out: HDAC Biochemical IC50 HDAC10.
A further assay has as its target HDAC2 (Homo sapiens (Human), UniProt Q92769). The description is as above. Particulars: read-out: HDAC Biochemical IC50 HDAC2.
Assay [9] has as its target HDAC3 co-expressed with nuclear receptor corepressor (Ncor2) (Homo sapiens (Human), UniProt O15379). The assay is described as above. Particulars: read-out: HDAC Biochemical IC50 HDAC3.
In a further assay the target is HDAC4 (Homo sapiens (Human), UniProt P56524). The description is as above. Particulars: read-out: HDAC Biochemical IC50 HDAC4.
The target of the next assay is HDAC5 (Homo sapiens (Human), UniProt Q9UQL6). The description is as above. Particulars: read-out: HDAC Biochemical IC50 HDAC5.
The next assay addresses HDAC6 (Homo sapiens (Human), UniProt Q9UBN7). Described as above. Particulars: read-out: HDAC Biochemical IC50 HDAC6.
The next assay has as its target HDAC7 (Homo sapiens (Human), UniProt Q8WUI4). Described as above. Particulars: read-out: HDAC Biochemical IC50 HDAC7.
In a further assay the target is HDAC8 (Homo sapiens (Human), UniProt Q9BY41). The assay is described as above. Particulars: read-out: HDAC Biochemical IC50 HDAC8.
The target in the next assay is HDAC9 (Homo sapiens (Human), UniProt Q9UKV0). The assay is described as above. The note with it: read-out: HDAC Biochemical IC50 HDAC9.
The next assay concerns the target HDAC11 (Homo sapiens (Human), UniProt Q96DB2). The assay is described as above. In kind it is biochemical. The note with it: for IC50: read-out: HDAC Biochemical IC50 HDAC11.

For orientation: IC50 means the concentration that gives 50% inhibition.

As to `CC1(C)c2cccc(C(=O)NO)c2CN1c1cnc(C(F)(F)F)cn1`, in the assay on HEL 92.1.7 cells [1], the “growth of the HEL 92.1.7 cell line” value was “inhibited the growth”. For the same compound, the “growth of SET-2 cell line generated to be Ruxolitinib-resistant” value in the assay with SET-2 cells was “inhibited the growth”. The cell cycle effect result in the assay with HEL 92.1.7 cells [2] is “induced G1 cell cycle arrest”. Besides, the “growth of stem-like cancer cells (sphere formation)” value in [3] and in assay [4] was “prevented growth” throughout. For the same compound, the tubule formation result with H1650 SP cells is on record as “inhibited tubule formation”. The “expression of Gli1 and Yap1” value in assay [5] and in assay [6] was “decreased expression” in each case. The “expression of Sox2” value in assay [5] and in [6] was “decreased expression” in each case. Moreover, the “growth of H1650 cells co-cultured with primary CAFs” value in assay [7] is on record as “inhibit the growth”. For the same compound, in [8], the “effects on CAFs” value is recorded as “minimal effects”. For the same compound, the “cell viability, combination with the Smoothened inhibitors” value in the assay with A549 cells and in the assay on NCI-H2170 cells was “decreased cell viability” each time.

With `O=C(NO)c1cccc2c1CC1(CC2)CCN(Cc2ccc(Cl)cc2)C1=O` (centres unmarked) [II-69, 1′-(4-chlorobenzyl)-N-hydroxy-2′-oxo-3,4-dihydro-1H-spiro[naphthalene-2,3′-pyrrolidine]-8-carboxamide], the IC50 (at HDAC1; at HDAC10; at HDAC2; in assay [9]; on HDAC4; at HDAC5) was more than 10 µM in each case. Besides, the IC50 on HDAC6, on HDAC7, on HDAC8, at HDAC9 and at HDAC11 was more than 10 µM in each case. Moreover, the “growth of the HEL 92.1.7 cell line” value in the assay with HEL 92.1.7 cells [1] is “did not”.

As to `O=C(NO)c1cccc2c1CC1(CC2)CCN(c2cccc(C(F)(F)F)c2)C1=O` (centres unmarked) [II-72, N-hydroxy-2′-oxo-1′-(3-(trifluoromethyl)phenyl)-3,4-dihydro-1H-spiro[naphthalene-2,3′-pyrrolidine]-8-carboxamide], the concentration for half-maximal inhibition (IC50) (on HDAC1; at HDAC10; at HDAC2; in assay [9]; on HDAC4; on HDAC5) was more than 10 µM in each case. The IC50 at HDAC6, on HDAC7, on HDAC8, on HDAC9 and at HDAC11 was more than 10 µM each time. The “growth of stem-like cancer cells (sphere formation)” value in assay [3] and in assay [4] was “did not” each time. For the same compound, the tubule formation entry in the assay on H1650 SP cells is recorded as “did not”.

For the compound `CC1(C)c2cccc(C(=O)NO)c2CN1c1nc2ccc(C(F)(F)F)cc2[nH]1`, the “selectivity over HDACs 1-10” value at HDAC11 (HDAC11 versus HDACs 1-10) is more than 1800 fold. In addition, the “expression of Gli1 and Yap1” value in assay [5] and in assay [6] was “decreased expression” in each case. Besides, the “expression of Sox2” value in assay [5] and in assay [6] was “decreased expression” each time. The “cell viability, combination with the Smoothened inhibitors” value with A549 cells and in the assay on NCI-H2170 cells was “decreased cell viability” in each case.
